Columns and labels:
Conditions in all cases: NCI-H1975
[1] = biological target: Transcription factor Jun (Homo sapiens) (UniProt P05412)
[2] = biological target: Tyrosine-protein kinase Yes (Homo sapiens) (UniProt P07947)
[3] = biological target: Mitogen-activated protein kinase; ERK1/ERK2 (Homo sapiens) (UniProt P27361+P28482)
[4] = biological target: 5'-AMP-activated protein kinase catalytic subunit alpha-2 (Homo sapiens) (UniProt P54646)
[5] = biological target: T1, Signal transducer and activator of transcription 6 (Homo sapiens) (UniProt P42226)
T1 sequence (whole entry): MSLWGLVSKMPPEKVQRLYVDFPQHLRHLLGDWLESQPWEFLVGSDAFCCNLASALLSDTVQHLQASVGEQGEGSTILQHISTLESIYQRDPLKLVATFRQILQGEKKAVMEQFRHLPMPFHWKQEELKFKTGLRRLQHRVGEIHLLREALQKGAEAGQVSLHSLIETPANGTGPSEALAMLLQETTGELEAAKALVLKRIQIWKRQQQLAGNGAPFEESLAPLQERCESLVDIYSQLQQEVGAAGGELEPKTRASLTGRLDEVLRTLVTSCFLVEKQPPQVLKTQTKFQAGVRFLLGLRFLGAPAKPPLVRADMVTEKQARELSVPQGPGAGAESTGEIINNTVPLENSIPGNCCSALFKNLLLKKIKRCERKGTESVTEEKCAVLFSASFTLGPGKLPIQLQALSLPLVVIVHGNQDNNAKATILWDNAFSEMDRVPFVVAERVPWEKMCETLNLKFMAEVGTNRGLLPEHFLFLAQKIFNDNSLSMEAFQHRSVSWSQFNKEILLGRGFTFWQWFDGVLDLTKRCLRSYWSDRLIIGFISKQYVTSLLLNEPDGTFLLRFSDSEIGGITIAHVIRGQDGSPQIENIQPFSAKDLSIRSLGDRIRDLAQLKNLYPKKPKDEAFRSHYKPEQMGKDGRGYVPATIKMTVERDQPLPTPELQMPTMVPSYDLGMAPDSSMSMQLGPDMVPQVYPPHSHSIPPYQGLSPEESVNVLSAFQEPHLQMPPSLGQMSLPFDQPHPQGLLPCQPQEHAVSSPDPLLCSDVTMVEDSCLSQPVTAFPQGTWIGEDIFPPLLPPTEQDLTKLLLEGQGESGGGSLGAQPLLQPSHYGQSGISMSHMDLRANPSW

Chains of the proteins cited; added tags and fusions are not shown. Lines headed by an entry give the natural chain unless they say otherwise; changes in a name come on top.
UniProt P05412, whole entry: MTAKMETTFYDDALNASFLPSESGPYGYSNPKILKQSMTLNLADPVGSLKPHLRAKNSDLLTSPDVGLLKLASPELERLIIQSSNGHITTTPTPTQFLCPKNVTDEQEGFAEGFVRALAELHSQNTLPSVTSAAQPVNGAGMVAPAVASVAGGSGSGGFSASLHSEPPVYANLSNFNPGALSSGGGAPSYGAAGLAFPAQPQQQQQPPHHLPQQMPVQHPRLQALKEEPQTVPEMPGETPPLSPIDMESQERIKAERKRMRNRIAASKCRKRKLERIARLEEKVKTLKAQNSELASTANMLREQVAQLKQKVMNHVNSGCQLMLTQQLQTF
UniProt P07947, whole entry, looked up: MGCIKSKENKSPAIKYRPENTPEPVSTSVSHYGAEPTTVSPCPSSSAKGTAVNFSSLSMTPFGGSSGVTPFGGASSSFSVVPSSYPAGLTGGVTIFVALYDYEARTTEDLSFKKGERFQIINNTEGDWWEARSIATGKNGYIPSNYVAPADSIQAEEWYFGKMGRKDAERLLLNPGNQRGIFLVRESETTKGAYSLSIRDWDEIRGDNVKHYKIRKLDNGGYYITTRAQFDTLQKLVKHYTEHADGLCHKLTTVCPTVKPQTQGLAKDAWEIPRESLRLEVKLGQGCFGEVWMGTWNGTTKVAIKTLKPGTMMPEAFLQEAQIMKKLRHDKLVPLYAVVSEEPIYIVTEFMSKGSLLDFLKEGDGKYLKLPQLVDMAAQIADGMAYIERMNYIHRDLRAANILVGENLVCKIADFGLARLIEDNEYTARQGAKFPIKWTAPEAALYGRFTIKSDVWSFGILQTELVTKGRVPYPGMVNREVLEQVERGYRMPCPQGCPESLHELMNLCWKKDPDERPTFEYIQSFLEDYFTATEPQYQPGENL
UniProt P27361, whole entry, looked up: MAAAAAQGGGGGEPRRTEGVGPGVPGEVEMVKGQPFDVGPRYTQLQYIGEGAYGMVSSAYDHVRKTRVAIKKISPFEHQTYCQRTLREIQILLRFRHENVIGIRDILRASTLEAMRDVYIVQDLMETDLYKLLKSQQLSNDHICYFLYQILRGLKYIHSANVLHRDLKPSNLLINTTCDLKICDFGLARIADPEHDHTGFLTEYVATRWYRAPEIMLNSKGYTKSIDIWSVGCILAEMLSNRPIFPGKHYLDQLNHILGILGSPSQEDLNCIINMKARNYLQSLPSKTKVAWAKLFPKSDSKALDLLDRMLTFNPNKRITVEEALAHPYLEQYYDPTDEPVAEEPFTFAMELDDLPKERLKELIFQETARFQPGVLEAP
UniProt P28482, whole entry, looked up: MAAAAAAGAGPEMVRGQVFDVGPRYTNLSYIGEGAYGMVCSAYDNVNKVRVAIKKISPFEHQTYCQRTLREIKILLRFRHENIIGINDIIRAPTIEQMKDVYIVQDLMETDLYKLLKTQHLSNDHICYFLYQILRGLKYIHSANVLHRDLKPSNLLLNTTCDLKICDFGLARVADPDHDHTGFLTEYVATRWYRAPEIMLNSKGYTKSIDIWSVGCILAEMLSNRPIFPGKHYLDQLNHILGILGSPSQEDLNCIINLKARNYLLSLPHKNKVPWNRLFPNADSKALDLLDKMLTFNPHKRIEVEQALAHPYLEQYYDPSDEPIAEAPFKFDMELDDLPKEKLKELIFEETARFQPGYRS
UniProt P54646: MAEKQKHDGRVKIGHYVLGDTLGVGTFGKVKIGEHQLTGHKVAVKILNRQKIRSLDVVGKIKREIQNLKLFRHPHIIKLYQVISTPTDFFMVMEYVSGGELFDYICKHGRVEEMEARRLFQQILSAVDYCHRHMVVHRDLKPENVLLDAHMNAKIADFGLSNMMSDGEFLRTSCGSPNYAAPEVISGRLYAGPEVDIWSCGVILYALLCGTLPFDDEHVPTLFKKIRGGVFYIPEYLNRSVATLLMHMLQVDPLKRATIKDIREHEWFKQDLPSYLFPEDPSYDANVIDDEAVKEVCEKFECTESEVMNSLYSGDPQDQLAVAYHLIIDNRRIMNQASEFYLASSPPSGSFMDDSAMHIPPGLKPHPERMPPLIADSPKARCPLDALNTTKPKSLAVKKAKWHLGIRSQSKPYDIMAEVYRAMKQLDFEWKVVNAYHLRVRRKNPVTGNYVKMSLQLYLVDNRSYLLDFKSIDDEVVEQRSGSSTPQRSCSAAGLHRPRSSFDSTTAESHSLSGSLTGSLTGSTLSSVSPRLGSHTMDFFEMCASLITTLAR
UniProt P04792, whole entry: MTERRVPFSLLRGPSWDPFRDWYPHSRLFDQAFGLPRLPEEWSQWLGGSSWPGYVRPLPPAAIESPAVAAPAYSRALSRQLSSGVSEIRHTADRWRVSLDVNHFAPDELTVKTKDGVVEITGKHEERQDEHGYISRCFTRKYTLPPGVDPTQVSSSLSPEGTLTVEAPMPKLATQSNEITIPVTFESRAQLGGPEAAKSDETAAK
UniProt Q05397, whole entry, looked up: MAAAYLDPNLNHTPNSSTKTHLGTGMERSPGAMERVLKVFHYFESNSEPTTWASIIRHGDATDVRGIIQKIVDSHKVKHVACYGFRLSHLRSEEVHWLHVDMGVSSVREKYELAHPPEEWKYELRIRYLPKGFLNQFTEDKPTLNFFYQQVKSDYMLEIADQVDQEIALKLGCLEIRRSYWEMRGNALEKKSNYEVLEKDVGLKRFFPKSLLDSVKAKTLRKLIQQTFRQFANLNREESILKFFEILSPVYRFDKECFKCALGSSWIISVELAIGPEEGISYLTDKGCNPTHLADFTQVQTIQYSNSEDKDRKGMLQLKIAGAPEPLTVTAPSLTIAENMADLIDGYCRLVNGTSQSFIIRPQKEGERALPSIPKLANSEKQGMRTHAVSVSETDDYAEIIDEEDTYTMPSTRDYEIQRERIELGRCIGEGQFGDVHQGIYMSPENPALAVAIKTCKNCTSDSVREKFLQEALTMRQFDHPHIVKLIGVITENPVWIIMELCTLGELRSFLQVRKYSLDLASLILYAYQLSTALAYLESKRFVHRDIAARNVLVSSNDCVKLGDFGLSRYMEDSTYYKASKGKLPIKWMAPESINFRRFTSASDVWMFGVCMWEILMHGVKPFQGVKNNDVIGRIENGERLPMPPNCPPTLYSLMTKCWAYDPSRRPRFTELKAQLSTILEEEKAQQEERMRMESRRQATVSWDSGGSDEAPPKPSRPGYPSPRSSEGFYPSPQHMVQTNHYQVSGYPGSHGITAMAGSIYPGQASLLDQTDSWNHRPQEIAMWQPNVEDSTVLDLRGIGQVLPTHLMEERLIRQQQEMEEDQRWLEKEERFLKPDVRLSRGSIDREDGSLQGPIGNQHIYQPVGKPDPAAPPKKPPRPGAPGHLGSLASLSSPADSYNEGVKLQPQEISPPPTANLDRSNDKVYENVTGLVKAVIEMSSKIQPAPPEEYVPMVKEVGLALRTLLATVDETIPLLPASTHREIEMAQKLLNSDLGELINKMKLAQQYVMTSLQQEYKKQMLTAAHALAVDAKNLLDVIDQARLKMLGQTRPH
UniProt P04637, whole entry, looked up: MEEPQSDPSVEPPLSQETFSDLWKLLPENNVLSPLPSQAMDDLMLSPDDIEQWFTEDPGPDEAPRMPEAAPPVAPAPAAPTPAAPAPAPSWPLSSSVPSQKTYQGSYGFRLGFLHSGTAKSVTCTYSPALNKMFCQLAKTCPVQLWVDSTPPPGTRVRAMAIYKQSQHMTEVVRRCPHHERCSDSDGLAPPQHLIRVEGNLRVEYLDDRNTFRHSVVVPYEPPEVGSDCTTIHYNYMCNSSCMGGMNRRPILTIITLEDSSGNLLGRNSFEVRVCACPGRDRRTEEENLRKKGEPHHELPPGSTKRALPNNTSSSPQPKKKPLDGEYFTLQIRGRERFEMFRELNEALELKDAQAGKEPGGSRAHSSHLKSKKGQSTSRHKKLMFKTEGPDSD

[6] = biological target: T2, 1-phosphatidylinositol 4,5-bisphosphate phosphodiesterase gamma-1 (Homo sapiens) (UniProt P19174)
T2 sequence (whole entry): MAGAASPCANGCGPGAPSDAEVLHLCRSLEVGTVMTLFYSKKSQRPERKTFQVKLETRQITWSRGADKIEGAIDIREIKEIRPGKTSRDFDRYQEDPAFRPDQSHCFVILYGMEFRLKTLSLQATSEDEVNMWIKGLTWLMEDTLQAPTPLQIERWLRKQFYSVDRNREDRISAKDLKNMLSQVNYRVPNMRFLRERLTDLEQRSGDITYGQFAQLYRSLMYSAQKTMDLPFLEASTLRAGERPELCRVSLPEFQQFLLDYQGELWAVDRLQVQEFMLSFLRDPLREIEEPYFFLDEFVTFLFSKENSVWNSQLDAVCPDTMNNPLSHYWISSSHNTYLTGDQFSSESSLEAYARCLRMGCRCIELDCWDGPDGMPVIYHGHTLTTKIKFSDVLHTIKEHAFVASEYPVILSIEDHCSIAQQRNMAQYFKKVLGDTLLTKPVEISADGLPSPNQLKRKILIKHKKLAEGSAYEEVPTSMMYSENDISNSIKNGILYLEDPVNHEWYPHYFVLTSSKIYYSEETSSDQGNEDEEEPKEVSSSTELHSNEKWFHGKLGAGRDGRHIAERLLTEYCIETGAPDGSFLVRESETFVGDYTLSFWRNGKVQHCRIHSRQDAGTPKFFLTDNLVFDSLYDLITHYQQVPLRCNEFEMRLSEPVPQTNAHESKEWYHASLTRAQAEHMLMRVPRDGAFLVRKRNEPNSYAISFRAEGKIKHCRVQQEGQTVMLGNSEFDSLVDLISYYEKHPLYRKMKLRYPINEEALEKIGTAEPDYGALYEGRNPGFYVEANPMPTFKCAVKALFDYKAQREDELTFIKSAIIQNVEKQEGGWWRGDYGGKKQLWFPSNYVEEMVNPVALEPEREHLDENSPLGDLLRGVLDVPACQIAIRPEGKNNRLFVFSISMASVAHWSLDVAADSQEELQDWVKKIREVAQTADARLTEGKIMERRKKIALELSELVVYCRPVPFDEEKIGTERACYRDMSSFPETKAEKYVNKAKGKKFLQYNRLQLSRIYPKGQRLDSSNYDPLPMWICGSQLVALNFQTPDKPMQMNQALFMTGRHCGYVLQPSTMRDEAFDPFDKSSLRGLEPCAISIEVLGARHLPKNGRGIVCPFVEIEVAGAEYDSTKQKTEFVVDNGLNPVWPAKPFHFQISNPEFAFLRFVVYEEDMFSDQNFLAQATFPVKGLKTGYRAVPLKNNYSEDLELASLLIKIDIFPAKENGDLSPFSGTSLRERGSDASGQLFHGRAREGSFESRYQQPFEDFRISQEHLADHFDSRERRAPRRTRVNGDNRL

[7] = biological target: T3, Nitric oxide synthase 3 (Homo sapiens) (UniProt P29474)
T3 sequence (whole entry): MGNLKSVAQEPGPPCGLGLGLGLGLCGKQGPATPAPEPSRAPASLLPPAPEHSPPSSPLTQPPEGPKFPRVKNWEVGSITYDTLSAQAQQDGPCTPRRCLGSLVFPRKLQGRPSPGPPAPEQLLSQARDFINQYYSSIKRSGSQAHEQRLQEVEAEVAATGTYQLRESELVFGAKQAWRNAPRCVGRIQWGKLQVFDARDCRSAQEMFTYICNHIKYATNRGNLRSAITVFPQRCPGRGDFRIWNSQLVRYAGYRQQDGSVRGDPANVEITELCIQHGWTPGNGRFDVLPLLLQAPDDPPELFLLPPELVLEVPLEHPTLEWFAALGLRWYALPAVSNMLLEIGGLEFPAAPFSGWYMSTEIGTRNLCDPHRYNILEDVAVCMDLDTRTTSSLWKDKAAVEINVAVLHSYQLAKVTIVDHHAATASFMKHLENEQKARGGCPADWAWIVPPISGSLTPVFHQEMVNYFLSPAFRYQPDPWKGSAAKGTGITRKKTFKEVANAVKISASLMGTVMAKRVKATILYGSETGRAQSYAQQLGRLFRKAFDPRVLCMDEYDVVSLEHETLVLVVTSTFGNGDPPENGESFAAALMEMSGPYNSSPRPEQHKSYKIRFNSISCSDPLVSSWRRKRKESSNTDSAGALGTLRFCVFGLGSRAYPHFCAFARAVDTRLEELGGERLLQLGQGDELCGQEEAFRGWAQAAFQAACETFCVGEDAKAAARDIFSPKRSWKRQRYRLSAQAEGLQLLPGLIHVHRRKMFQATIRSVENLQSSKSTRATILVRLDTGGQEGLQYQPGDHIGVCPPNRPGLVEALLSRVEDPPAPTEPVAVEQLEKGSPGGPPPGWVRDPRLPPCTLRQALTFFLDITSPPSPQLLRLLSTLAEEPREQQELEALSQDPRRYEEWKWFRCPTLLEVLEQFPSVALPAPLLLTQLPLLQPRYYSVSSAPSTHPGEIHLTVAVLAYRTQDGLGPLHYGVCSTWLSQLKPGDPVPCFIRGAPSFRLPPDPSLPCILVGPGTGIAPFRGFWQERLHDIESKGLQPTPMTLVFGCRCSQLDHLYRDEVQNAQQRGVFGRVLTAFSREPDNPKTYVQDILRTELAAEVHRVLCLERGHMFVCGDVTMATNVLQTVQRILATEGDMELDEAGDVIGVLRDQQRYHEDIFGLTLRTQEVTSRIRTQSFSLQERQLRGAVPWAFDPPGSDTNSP

[8] = biological target: Heat shock protein beta-1 (Homo sapiens) (UniProt P04792)
[9] = biological target: Focal adhesion kinase 1 (Homo sapiens) (UniProt Q05397)
[10] = biological target: Cellular tumor antigen p53 (Homo sapiens) (UniProt P04637)
[11] = biological target: 5'-AMP-activated protein kinase catalytic subunit alpha-2 (Homo sapiens) (UniProt P54646); remark: listed apart in the source

## CCOc1ccc(-c2nc(C(=O)NO)c3[nH]c(=O)n(-c4ccccc4OC)c3n2)cc1
[1]
  log2FC: 0.23
[2]
  log2FC: -0.41
[3]
  log2FC: 0.39
[4]
  log2FC: -0.02
[5]
  log2FC: 0.27
[6]
  log2FC: 0.7
[7]
  log2FC: -0.27
[8]
  log2FC: -0.25

## CCOc1ccc(-c2nc(/C(N)=N/O)c3[nH]c(=O)n(-c4ccccc4OC)c3n2)cc1
[1]
  log2FC: 0.57
[4]
  log2FC: -0.27
[9]
  log2FC: -0.17
[5]
  log2FC: -0.25
[6]
  log2FC: 0.87
[10]
  log2FC: 0.61
[11]
  log2FC: -0.04
